Assay [1] has as its system p-RSK (Thr359) in colo205 cells. As to the kind of experiment: p-RSK (Thr359) Acumen Assay in Colo205. Particulars: read-out: Example 19 IC50, 1 hour compound incubation. As for the experimental part:
Example 19: p-RSK (Thr359) Acumen Assay in Colo205
• Phospho-p90RSK (Thr359) (D1E9) Rabbit mAb: cell signal, #8753 • Alexa Fluor® 488 donkey anti-rabbit IgG: invitrogen, #A-21206 • Propidium Iodide: Sigma, #p4170 • 4% Paraformaldehyde: SCRC, #DF021 • 10% Triton X-100: PIERCE, #28314 • 96-well plate (black with clear bottom): BD, #354640 • Acumen® eX3 (A Multilaser Microplate Cytometer For Enhanced High Content Screening): TTP LabTech 3. Acumen Assay Protocol • Seed 4000 cells in 100 μl 10% FBS/well into 96-well plate, incubate at 37° C., 5% CO2, overnight. • Dilute the compound to 3, 1, 0.33, 0.11, 0.037, 0.012, 0.004, 0.001 μM, keeping the DMSO concentration at 5%. Add 10 μl of diluted compound per well and incubate at 37° C., 5% CO2 for 1 hour. • Add 100 μl of 4% pre-warmed Paraformaldehyde (2% final), and incubate for 45 min at room temperature. • Remove paraformaldehyde solutions. Add 100 μl of ice-cold 0.1% Triton to fixed cells at room temperature for 30 min. • Wash twice with 150 μl PBS and incubate with 100 μl blocking buffer (1% BSA, in PBS) for 2˜3 hours at room temperature, seal the plate. • Wash once with PBS and incubate with 35 μl p-RSK (Thr359) (1:1000 dilution) overnight at 4° C. […]

Protein sequences, listed by entry. Tags and fused reporters are not part of them.
UniProt P28482, whole entry: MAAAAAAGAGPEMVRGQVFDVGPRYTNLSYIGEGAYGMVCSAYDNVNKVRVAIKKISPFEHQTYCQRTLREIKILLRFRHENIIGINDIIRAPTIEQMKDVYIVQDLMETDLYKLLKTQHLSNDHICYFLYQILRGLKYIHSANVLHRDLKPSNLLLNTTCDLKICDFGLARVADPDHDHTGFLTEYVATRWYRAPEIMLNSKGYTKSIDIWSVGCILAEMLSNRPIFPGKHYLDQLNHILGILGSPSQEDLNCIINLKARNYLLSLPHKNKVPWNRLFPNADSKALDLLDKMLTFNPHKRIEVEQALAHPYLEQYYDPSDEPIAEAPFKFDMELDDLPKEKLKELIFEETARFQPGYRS

Assay [2] addresses MAPK1(ERK2) enzyme (Homo sapiens, UniProt P28482). As to the kind of experiment: Z-Lyte Kinase Assay of ERK2. Particulars: read-out: Example 18 IC50. As for the experimental part: Example 18: Z-Lyte Kinase Assay of ERK2
1. Materials and Reagents:
2. Reaction Steps: Plate Map
3. Solution Preparation • 1) 1.33× Kinase Buffer: Dilute 5× Kinase Buffer to 1.33× with ddH2O • 2) 4× Test Compounds: Serially dilute the test compounds to 4 folds of the concentrations desired, keeping the DMSO concentration at 8%. The final concentrations are 1, 0.33, 0.11, 0.037, 0.012, 0.004, 0.0014, 0.00046 μM, and the final concentration of DMSO is 2%. • 3) Kinase/Peptide Mixture (P/K solution): Prepare Kinase/Peptide Mixture by diluting the kinase to 0.6 μg/ml and the Z-LYTE™ Ser/Thr3 peptide to 4 μM in 1.33× Kinase Buffer. Mix gently by pipetting. • 4) Phospho-peptide Solution (PP solution): Add 0.4 μl of Z-LYTE™ Ser/Thr3 Phospho-peptide to 99.6 μl of 1.33× Kinase Buffer. • 5) ATP Solution: Prepare ATP Solution by diluting the 10 mM of ATP in 1.33× Kinase Buffer to 100 μM. • 6) Development Solution: Dilute Development Reagent A with Development Buffer as 1:1024. 4. Reaction • 1) Kinase reaction (10 μl of Volume) • a. In a 384-well plate, add 2.5 μl of 4× test Cpds to each well except C1, C2, C3 wells Add 2.5 μl of 8% DMSO to C1, C2, C3 wells • b. Put the plate on ice • c. Add 5 μl of P/K mixture to each test Cpd wells and C1, C2 wells • d. […] Seal the plate to protect from the light and incubate the plate for 1 hour at RT (25-30° C.) • 3) Stop and read • a. […]

Bounds are passed on as bounds.

Turning to `CO[C@H]1COCC[C@@H]1Nc1ncc(C)c(-c2cc3n(c2)CCCn2c-3nnc2C2(C(F)(F)F)CCC2)n1` (relative stereo), the half-maximal inhibitory concentration (IC50) was more than 100 nM in assay [1] and less than 5 nM in assay [2].

The record behind these values is patent publication US12492210B2, “Tricyclic compounds and their use” (HUTCHISON MEDIPHARMA LIMITED, priority 2019, dated 2025).
